Values of other authors, collected in patent EP3654984B1, “TOPICAL TREATMENT FOR PREVENTING AND MITIGATING SKIN CYTOTOXICITY DUE TO THERAPY WITH TYROSINE KINASE INHIBITORS” (EUCARE S.R.L., priority 2017, dated 2019).

System: patients with EGFR mutation-positive non-small-cell lung cancer
Conditions: LUX-Lung 7, cited from earlier work
[1] = AST, aspartate aminotransferase
[2] = afatinib 40 mg/day or gefitinib 250 mg/day
[3] = of the 160 (afatinib) / 159 (gefitinib) patients treated
[4] = term used for a group of adverse events

In the case of `COc1cc2ncnc(Nc3ccc(F)c(Cl)c3)c2cc1OCCCN1CCOCC1` [Gefitinib, gefitinib], the “ALT increased, All” value (ALT, alanine aminotransferase) is listed as 23.9%, the “ALT increased, Grade 3” value (ALT, alanine aminotransferase) is listed as 7.5‡ % and the “AST increased, All” value [1] is listed as 20.8%. The “AST increased, Grade 3” value [1] was 2.5%, the “Diarrhea, All” value [2] was 61.0% and the “Diarrhea, Grade 3” value [2] was 1.3%. The “Alopecia, All” value was 15.1%, the “Itching, All” value was 22.6% and the “Nausea, All” value was 13.8%. For the same compound, the “Reduction of appetite, All” value was 11.9%, the “Vomiting, All” value was 3.8% and the “Vomiting, Grade 3” value was 0.6%. For the same compound, the “Xerosis, All” value was 37.1%, the “grade 3 or 4 diarrhea” value was 1% and the “grade 3 or 4 rash or acne” value was 3%. The “grade 3 or 4 diarrhea, number of patients” value [3] was 2 patients, the “grade 3 or 4 rash or acne, number of patients” value [3] was 5 patients and the “Asthenia*, All” value [4] was 14.5%. The “Paronychia*, All” value [4] was 17.0%, the “Paronychia*, Grade 3” value [4] was 0.6% and the “Rash/acne*, All” value [4] was 81.1%. For the same compound, the “Rash/acne*, Grade 3” value [4] was 3.1% and the “Stomatitis*, All” value [4] was 23.9%.

Marks after values point to notes of the source that are not given here.
